# Data as given in PubChem BioAssay (EPA / NIEHS).
# Amino acid sequences for entries named in this document (tags omitted). A change or cut given only in a name is not applied to a line headed by its entry.
# UniProt P10275: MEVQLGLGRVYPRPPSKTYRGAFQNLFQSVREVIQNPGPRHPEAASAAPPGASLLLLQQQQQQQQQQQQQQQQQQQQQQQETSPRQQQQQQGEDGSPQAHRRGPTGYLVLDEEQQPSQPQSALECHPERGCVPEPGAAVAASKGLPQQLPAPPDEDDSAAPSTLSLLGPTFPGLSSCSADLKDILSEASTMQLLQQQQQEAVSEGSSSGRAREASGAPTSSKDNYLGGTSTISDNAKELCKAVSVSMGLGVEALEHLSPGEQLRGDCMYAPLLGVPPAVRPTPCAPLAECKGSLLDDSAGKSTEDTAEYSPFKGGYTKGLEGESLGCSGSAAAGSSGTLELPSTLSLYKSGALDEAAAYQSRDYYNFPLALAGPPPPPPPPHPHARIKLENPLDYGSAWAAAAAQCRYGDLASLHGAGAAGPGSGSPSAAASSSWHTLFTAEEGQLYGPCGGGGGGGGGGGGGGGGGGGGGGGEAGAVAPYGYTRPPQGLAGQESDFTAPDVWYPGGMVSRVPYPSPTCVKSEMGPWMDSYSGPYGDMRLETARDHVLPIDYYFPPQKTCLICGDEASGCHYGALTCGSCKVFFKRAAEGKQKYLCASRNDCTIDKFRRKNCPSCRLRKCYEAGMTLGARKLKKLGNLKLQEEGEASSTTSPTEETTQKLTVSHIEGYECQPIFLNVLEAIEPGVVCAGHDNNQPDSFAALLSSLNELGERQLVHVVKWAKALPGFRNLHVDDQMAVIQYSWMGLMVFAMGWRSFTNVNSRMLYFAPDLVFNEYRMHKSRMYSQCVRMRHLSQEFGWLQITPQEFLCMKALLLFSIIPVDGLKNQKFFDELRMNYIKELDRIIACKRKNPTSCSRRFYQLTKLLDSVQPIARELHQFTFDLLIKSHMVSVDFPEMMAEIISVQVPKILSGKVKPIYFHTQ
# Only a part is listed here, and it is no random draw. Results filed as inconclusive are left out. The source made the active and inactive calls. Rule for the calls: active = hit-call score of the fitted dose curve at least 0.9, where 1 is the maximum; inconclusive = response in the unintended direction; inactive = score below 0.9.
# Target: Androgen receptor (Homo sapiens) (UniProt P10275)
# Test: ATG_AR_TRANS: Attagene TRANS-FACTORIAL HepG2 Assay for human Androgen Receptor (AR) (AID 2282973)
# Conditions: HepG2 Attagene TRANS-FACTORIAL AR reporter transcription
# How it was run: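 HepG2 cells transiently transfected with multiplexed GAL4-UAS reporter units and chimeric NR-Gal4 fusion; 24 h compound exposure. Reporter mRNA measured by RT-PCR, 6-FAM labelling, HpaI digestion and capillary electrophoresis; gain-of-signal fitted relative to DMSO baseline.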
row,Structure (SMILES),outcome
1,CCCCOP(OCCCC)OCCCC,inactive
2,O=C(Cl)Oc1ccccc1,inactive
3,O=[P+](Oc1ccccc1)Oc1ccccc1,inactive
4,O=C(Cl)OCCOC(=O)Cl,inactive
5,O=C1C2CC=CCC2C(=O)N1SC(Cl)(Cl)C(Cl)Cl (stereo not given),inactive
